Assay results published in US9303023B2, “Pyrazole and imidazole derivatives useful as orexin antagonists” (ACTELION PHARMACEUTICALS LTD., priority 2011, dated 2016).

By UniProt entry, the sequences of proteins in these tests, tags left out.
UniProt O43614, whole entry: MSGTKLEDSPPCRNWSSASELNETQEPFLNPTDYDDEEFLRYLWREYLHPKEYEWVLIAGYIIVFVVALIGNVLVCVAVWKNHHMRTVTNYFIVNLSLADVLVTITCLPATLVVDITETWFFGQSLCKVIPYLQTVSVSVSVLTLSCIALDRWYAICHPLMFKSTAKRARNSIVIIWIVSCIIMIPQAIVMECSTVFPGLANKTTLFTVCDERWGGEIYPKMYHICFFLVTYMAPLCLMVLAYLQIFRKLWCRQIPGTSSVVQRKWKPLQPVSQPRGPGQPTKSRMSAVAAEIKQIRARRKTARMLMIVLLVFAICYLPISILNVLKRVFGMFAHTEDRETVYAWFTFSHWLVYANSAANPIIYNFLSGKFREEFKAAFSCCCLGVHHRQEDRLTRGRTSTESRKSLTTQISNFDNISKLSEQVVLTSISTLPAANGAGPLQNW

molecular target: human orexin-2 receptor (Homo sapiens (Human), UniProt O43614); test: In vitro intracellular calcium measurements (FLIPR), antagonism of orexin-A response, OX2; assay type: cell-based; details: CHO cells expressing human orexin-2 receptor; 3 nM orexin-A; compound incubation time 120 min

How did the IC50 turn out when COc1cc(OC)nc(N2CCCC2Cn2cc(NC(=O)c3ncoc3-c3cccc(C)c3)cn2)n1 (racemic) [Example 141, rac-N-(1-((1-(4,6-dimethoxypyrimidin-2-yl)pyrrolidin-2-yl)methyl)-1H-pyrazol-4-yl)-5-(m-tolyl)oxazole-4-carboxamide] was run?
Its IC50 is 320 nM.

With Cc1cccc(-c2ocnc2C(=O)Nc2cnn(CCn3c(C)nc4ccccc43)c2)c1 [Example 4, 5-m-Tolyl-oxazole-4-carboxylic acid {1-[2-(2-methyl-benzoimidazol-1-yl)-ethyl]-1H-pyrazol-4-yl}-amide] as the molecule, how does the IC50 read?
The IC50 was 176 nM.

Which IC50 does the source give for COc1cc(OC)nc(OCCn2cc(NC(=O)c3ncoc3-c3cccc(N(C)C)c3)cn2)n1 [Example 11, 5-(3-Dimethylamino-phenyl)-oxazole-4-carboxylic acid {1-[2-(4,6-dimethoxy-pyrimidin-2-yloxy)-ethyl]-1H-pyrazol-4-yl}-amide] here?
Its IC50 is 154 nM.

With Cc1cccc(-c2ocnc2C(=O)Nc2cnn(CCCN3CCc4ccccc43)c2)c1 [Example 13, 5-m-Tolyl-oxazole-4-carboxylic acid {1-[3-(2,3-dihydro-indol-1-yl)-propyl]-1H-pyrazol-4-yl}-amide] as the molecule, how does the IC50 read?
Its IC50 is 502 nM.

How did the IC50 turn out when Cc1cccc(-c2ocnc2C(=O)Nc2cnn(CCNc3cc(F)ccn3)c2)c1 [Example 14, 5-m-Tolyl-oxazole-4-carboxylic acid {1-[2-(4-fluoro-pyridin-2-ylamino)-ethyl]-1H-pyrazol-4-yl}-amide] was run?
Its IC50 is 379 nM.

For COc1ccnc(NCCn2cc(NC(=O)c3ncoc3-c3cccc(C)c3)cn2)c1 [Example 15, 5-m-Tolyl-oxazole-4-carboxylic acid {1-[2-(4-methoxy-pyridin-2-ylamino)-ethyl]-1H-pyrazol-4-yl}-amide], which IC50 is on record?
The IC50 was 254 nM.

With COc1cc(OC)nc(NCCn2cc(NC(=O)c3ncoc3-c3cccc(N4CCCC4)c3)cn2)n1 [Example 17, 5-(3-Pyrrolidin-1-yl-phenyl)-oxazole-4-carboxylic acid {1-[2-(4,6-dimethoxy-pyrimidin-2-ylamino)-ethyl]-1H-pyrazol-4-yl}-amide] as the molecule, how does the IC50 read?
The IC50 was 201 nM.

For COc1cc(OC)nc(NCCn2cc(NC(=O)c3ncoc3-c3cccc(N4CCOCC4)c3)cn2)n1 [Example 18, 5-(3-Morpholin-4-yl-phenyl)-oxazole-4-carboxylic acid {1-[2-(4,6-dimethoxy-pyrimidin-2-ylamino)-ethyl]-1H-pyrazol-4-yl}-amide], which IC50 is on record?
The IC50 was 134 nM.

How did the IC50 turn out when COc1cnc(NCCn2cc(NC(=O)c3ncoc3-c3cccc(C)c3)cn2)nc1OC [Example 20, 5-m-Tolyl-oxazole-4-carboxylic acid {1-[2-(4,5-dimethoxy-pyrimidin-2-ylamino)-ethyl]-1H-pyrazol-4-yl}-amide] was run?
The IC50 was 870 nM.

With COc1ccc2c(c1)CCN2CCCn1cc(NC(=O)c2ncoc2-c2cccc(C)c2)cn1 [Example 21, 5-m-Tolyl-oxazole-4-carboxylic acid {1-[3-(5-methoxy-2,3-dihydro-indol-1-yl)-propyl]-1H-pyrazol-4-yl}-amide] as the molecule, how does the IC50 read?
Its IC50 is 1830 nM.

Which IC50 does the source give for COc1ccc2c(c1)N(CCCn1cc(NC(=O)c3ncoc3-c3cccc(C)c3)cn1)CC2 [Example 22, 5-m-Tolyl-oxazole-4-carboxylic acid {1-[3-(6-methoxy-2,3-dihydro-indol-1-yl)-propyl]-1H-pyrazol-4-yl}-amide] here?
Its IC50 is 247 nM.

Which IC50 does the source give for COc1cc(OC)nc(NCCn2cc(NC(=O)c3ncoc3-c3ccncn3)cn2)n1 [Example 23, 5-Pyrimidin-4-yl-oxazole-4-carboxylic acid {1-[2-(4,6-dimethoxy-pyrimidin-2-ylamino)-ethyl]-1H-pyrazol-4-yl}-amide] here?
Its IC50 is 9020 nM.

With COc1ccc2[nH]cc(CCn3cc(NC(=O)c4ncoc4-c4ccc(C)c(C)c4)cn3)c2c1 [Example 24, 5-(3,4-Dimethyl-phenyl)-oxazole-4-carboxylic acid {1-[2-(5-methoxy-1H-indol-3-yl)-ethyl]-1H-pyrazol-4-yl}-amide] as the molecule, how does the IC50 read?
The IC50 was 51 nM.

How did the IC50 turn out when COc1ccc2[nH]cc(CCn3cc(NC(=O)c4ncoc4-c4ccc(C)c(OC)c4)cn3)c2c1 [Example 25, 5-(3-Methoxy-4-methyl-phenyl)-oxazole-4-carboxylic acid {1-[2-(5-methoxy-1H-indol-3-yl)-ethyl]-1H-pyrazol-4-yl}-amide] was run?
Its IC50 is 146 nM.

For COc1ccc(-c2ocnc2C(=O)Nc2cnn(CCc3c[nH]c4ccc(OC)cc34)c2)cc1 [Example 28, 5-(4-Methoxy-phenyl)-oxazole-4-carboxylic acid {1-[2-(5-methoxy-1H-indol-3-yl)-ethyl]-1H-pyrazol-4-yl}-amide], which IC50 is on record?
The IC50 was 35 nM.

With COc1ccc2[nH]cc(CCn3cc(NC(=O)c4ncsc4-c4cccc(C)c4)cn3)c2c1 [Example 30, 5-m-Tolyl-thiazole-4-carboxylic acid {1-[2-(5-methoxy-1H-indol-3-yl)-ethyl]-1H-pyrazol-4-yl}-amide] as the molecule, how does the IC50 read?
Its IC50 is 30 nM.

With COc1cc2ccn(CCn3cc(NC(=O)c4ncoc4-c4ccc(C)c(C)c4)cn3)c2cc1OC [Example 31, 5-(3,4-Dimethyl-phenyl)-oxazole-4-carboxylic acid {1-[2-(5,6-dimethoxy-indol-1-yl)-ethyl]-1H-pyrazol-4-yl}-amide] as the molecule, how does the IC50 read?
Its IC50 is 24 nM.

Which IC50 does the source give for COc1cc(-c2ocnc2C(=O)Nc2cnn(CCn3ccc4cc(OC)c(OC)cc43)c2)ccc1C [Example 32, 5-(3-Methoxy-4-methyl-phenyl)-oxazole-4-carboxylic acid {1-[2-(5,6-dimethoxy-indol-1-yl)-ethyl]-1H-pyrazol-4-yl}-amide] here?
The IC50 was 110 nM.

How did the IC50 turn out when COc1cc2ccn(CCn3cc(NC(=O)c4ncoc4-c4cccc(F)c4)cn3)c2cc1OC [Example 33, 5-(3-Fluoro-phenyl)-oxazole-4-carboxylic acid {1-[2-(5,6-dimethoxy indol-1-yl)-ethyl]-1H-pyrazol-4-yl}-amide] was run?
Its IC50 is 146 nM.

Which IC50 does the source give for COc1ccc(-c2ocnc2C(=O)Nc2cnn(CCn3ccc4cc(OC)c(OC)cc43)c2)cc1 [Example 35, 5-(4-Methoxy-phenyl)-oxazole-4-carboxylic acid {1-[2-(5,6-dimethoxy-indol-1-yl)-ethyl]-1H-pyrazol-4-yl}-amide] here?
Its IC50 is 233 nM.

With COc1cc2ccn(CCn3cc(NC(=O)c4ncoc4-c4ccccc4F)cn3)c2cc1OC [Example 36, 5-(2-Fluoro-phenyl)-oxazole-4-carboxylic acid {1-[2-(5,6-dimethoxy-indol-1-yl)-ethyl]-1H-pyrazol-4-yl}-amide] as the molecule, how does the IC50 read?
The IC50 was 287 nM.

How did the IC50 turn out when COc1ccc2[nH]cc(CCn3cc(NC(=O)c4ncoc4-c4cccc(OC(F)(F)F)c4)cn3)c2c1 [Example 37, 5-(3-Trifluoromethoxy-phenyl)-oxazole-4-carboxylic acid {1-[2-(5-methoxy-1H-indol-3-yl)-ethyl]-1H-pyrazol-4-yl}-amide] was run?
The IC50 was 13 nM.

How did the IC50 turn out when COc1ccc2[nH]cc(CCn3cc(NC(=O)c4ncoc4-c4cccc(C(F)(F)F)c4)cn3)c2c1 [Example 38, 5-(3-Trifluoromethyl-phenyl)-oxazole-4-carboxylic acid {1-[2-(5-methoxy-1H-indol-3-yl)-ethyl]-1H-pyrazol-4-yl}-amide] was run?
Its IC50 is 16 nM.

With COc1ccc2[nH]cc(CCn3cc(NC(=O)c4ncoc4-c4cccc(Cl)c4)cn3)c2c1 [Example 39, 5-(3-Chloro-phenyl)-oxazole-4-carboxylic acid {1-[2-(5-methoxy-1H-indol-3-yl)-ethyl]-1H-pyrazol-4-yl}-amide] as the molecule, how does the IC50 read?
The IC50 was 2 nM.

For COc1ccc2[nH]cc(CCn3cc(NC(=O)c4ncoc4-c4cccc(-c5ccccc5)c4)cn3)c2c1 [Example 40, 5-Biphenyl-3-yl-oxazole-4-carboxylic acid {1-[2-(5-methoxy-1H-indol-3-yl)-ethyl]-1H-pyrazol-4-yl}-amide], which IC50 is on record?
The IC50 was 73 nM.

Which IC50 does the source give for COc1ccc2[nH]cc(CCn3cc(NC(=O)c4ncoc4-c4ccc(C(F)(F)F)cc4)cn3)c2c1 [Example 41, 5-(4-Trifluoromethyl-phenyl)-oxazole-4-carboxylic acid {1-[2-(5-methoxy-1H-indol-3-yl)-ethyl]-1H-pyrazol-4-yl}-amide] here?
The IC50 was 594 nM.

COc1ccc2[nH]cc(CCn3cc(NC(=O)c4ncsc4-c4ccccc4)cn3)c2c1 [Example 42, 5-Phenyl-thiazole-4-carboxylic acid {1-[2-(5-methoxy-1H-indol-3-yl)-ethyl]-1H-pyrazol-4-yl}-amide] was tested. Which IC50 did it give?
The IC50 was 65 nM.

For COc1ccc2[nH]cc(CCn3cc(NC(=O)c4ncsc4-c4cccc(Cl)c4)cn3)c2c1 [Example 43, 5-(3-Chloro-phenyl)-thiazole-4-carboxylic acid {1-[2-(5-methoxy-1H-indol-3-yl)-ethyl]-1H-pyrazol-4-yl}-amide], which IC50 is on record?
The IC50 was 20 nM.

COc1ccc2[nH]cc(CCn3cc(NC(=O)c4ncsc4-c4ccc(C)c(C)c4)cn3)c2c1 [Example 44, 5-(3,4-Dimethyl-phenyl)-thiazole-4-carboxylic acid {1-[2-(5-methoxy-1H-indol-3-yl)-ethyl]-1H-pyrazol-4-yl}-amide] was tested. Which IC50 did it give?
The IC50 was 225 nM.

same assay, conditions: CHO cells expressing human orexin-2 receptor; 3 nM orexin-A; compound incubation time of 10 min (#)

Cc1cccc(-c2ocnc2C(=O)Nc2cnn(CCc3cccc(F)c3)c2)c1 [Example 2, 5-m-Tolyl-oxazole-4-carboxylic acid {1-[2-(3-fluoro-phenyl)-ethyl]-1H-pyrazol-4-yl}-amide] was tested. Which IC50 did it give?
The IC50 was 1780 nM.

Which IC50 does the source give for Cc1cccc(-c2ocnc2C(=O)Nc2cnn(CCNc3ccc(F)cn3)c2)c1 [Example 5, 5-m-Tolyl-oxazole-4-carboxylic acid {1-[2-(5-fluoro-pyridin-2-ylamino)-ethyl]-1H-pyrazol-4-yl}-amide] here?
The IC50 was 471 nM.

How did the IC50 turn out when Cc1ccc(NCCn2cc(NC(=O)c3ncoc3-c3cccc(C)c3)cn2)nc1 [Example 6, 5-m-Tolyl-oxazole-4-carboxylic acid {1-[2-(5-methyl-pyridin-2-ylamino)-ethyl]-1H-pyrazol-4-yl}-amide] was run?
The IC50 was 1040 nM.

Which IC50 does the source give for COc1cccc(OCCn2cc(NC(=O)c3ncoc3-c3cccc(C)c3)cn2)c1 [Example 8, 5-m-Tolyl-oxazole-4-carboxylic acid {1-[2-(3-methoxy-phenoxy)-ethyl]-1H-pyrazol-4-yl}-amide] here?
The IC50 was 514 nM.

With COc1cc(OC)nc(OCCn2cc(NC(=O)c3ncoc3-c3cccc(F)c3)cn2)n1 [Example 10, 5-(3-Fluoro-phenyl)-oxazole-4-carboxylic acid {1-[2-(4,6-dimethoxy-pyrimidin-2-yloxy)-ethyl]-1H-pyrazol-4-yl}-amide] as the molecule, how does the IC50 read?
Its IC50 is 53 nM.
